Earlier results, collected in patent US20110046173A1 (priority 2009, published 2011).

Tested on: analgesia
Details: mice; cited from earlier work

For `CN1CC[C@]23c4c5ccc(O)c4O[C@H]2[C@@H](O)C=C[C@H]3[C@H]1C5` [Morphine, morphine], the “interaction with oxymorphone, oxycodone, fentanyl, alfentayl or meperidine” value is given as “only additive effects”.

For L-methadone, the “interaction with oxymorphone, oxycodone, fentanyl, alfentayl or meperidine” value is given as “only additive effects”.
